Target: Sodium-dependent serotonin transporter (Homo sapiens, UniProt P31645)
Format: cell-based, HEK293

Sequences of proteins named here, by UniProt entry; tags and fusion partners are left off.
UniProt P31645, whole entry: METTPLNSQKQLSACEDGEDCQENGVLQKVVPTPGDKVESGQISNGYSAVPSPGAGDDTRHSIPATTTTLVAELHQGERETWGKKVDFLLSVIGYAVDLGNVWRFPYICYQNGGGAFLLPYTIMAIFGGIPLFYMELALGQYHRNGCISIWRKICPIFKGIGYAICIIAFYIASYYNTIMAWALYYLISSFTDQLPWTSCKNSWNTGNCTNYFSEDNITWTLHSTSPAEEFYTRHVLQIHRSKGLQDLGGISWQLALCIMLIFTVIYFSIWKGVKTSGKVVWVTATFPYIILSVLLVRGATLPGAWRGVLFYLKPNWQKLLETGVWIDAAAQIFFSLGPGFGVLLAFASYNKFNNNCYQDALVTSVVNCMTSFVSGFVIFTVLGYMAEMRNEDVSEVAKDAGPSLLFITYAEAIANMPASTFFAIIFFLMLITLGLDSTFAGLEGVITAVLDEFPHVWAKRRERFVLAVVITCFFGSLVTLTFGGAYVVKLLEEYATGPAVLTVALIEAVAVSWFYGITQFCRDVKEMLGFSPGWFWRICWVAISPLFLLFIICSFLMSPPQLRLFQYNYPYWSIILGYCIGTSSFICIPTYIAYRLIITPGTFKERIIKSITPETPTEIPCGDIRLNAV
UniProt P23975, whole entry: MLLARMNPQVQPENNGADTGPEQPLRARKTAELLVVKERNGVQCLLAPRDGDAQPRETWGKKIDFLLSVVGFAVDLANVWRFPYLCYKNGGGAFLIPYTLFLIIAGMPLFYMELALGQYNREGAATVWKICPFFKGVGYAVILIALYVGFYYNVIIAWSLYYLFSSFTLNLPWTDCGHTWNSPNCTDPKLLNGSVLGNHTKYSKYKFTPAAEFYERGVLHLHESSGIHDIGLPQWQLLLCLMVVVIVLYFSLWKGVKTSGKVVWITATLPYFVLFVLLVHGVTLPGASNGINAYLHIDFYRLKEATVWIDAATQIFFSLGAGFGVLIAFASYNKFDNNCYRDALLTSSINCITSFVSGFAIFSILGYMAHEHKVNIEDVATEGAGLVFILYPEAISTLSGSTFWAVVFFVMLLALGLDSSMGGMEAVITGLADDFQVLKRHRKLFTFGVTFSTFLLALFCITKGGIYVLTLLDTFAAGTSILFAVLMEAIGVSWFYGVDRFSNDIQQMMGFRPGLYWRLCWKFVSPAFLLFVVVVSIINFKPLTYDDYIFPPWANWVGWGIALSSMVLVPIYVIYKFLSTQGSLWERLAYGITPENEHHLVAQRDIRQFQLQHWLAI

Point of comparison: CN(C)C[C@H]1Cc2ccccc2[C@H](c2ccc(Cl)c(Cl)c2)C1 (mixture of isomers), IC50 970 nM. Against it:
- NC[C@H]1Cc2ccccc2[C@H](c2ccc(Cl)c(Cl)c2)C1 — 970-fold lower, 1 nM
- N[C@H]1Cc2ccccc2[C@@H](c2ccc(Cl)c(Cl)c2)C1 — 9-fold lower, 108 nM
- CN(C)[C@@H]1Cc2ccccc2[C@H](c2ccc(Cl)c(Cl)c2)C1 — 320-fold lower, 3 nM
- NC[C@@H]1Cc2ccccc2[C@@H](c2ccc(Cl)c(Cl)c2)C1 — 16-fold lower, 61 nM
- CN[C@@H]1Cc2ccccc2[C@H](c2ccc(Cl)c(Cl)c2)C1 — 120-fold lower, 8 nM
- N[C@@H]1Cc2ccccc2[C@H](c2ccc(Cl)c(Cl)c2)C1 — 12-fold lower, 84 nM
- CN(C)C[C@@H]1Cc2ccccc2[C@H](c2ccc(Cl)c(Cl)c2)C1 (racemic) — 3.1-fold lower, 311 nM
- CN[C@H]1CCc2ccccc2[C@@H]1c1ccc(Cl)c(Cl)c1 — 23-fold lower, 42 nM
- CN[C@@H]1CCc2ccccc2[C@@H]1c1ccc(Cl)c(Cl)c1 — 2-fold higher, 1960 nM
- CNC[C@H]1Cc2ccccc2[C@@H](c2ccc(Cl)c(Cl)c2)C1 — 61-fold lower, 16 nM
- NC[C@H]1Cc2ccccc2[C@@H](c2ccc(Cl)c(Cl)c2)C1 — 51-fold lower, 19 nM
- CN[C@H]1CCc2ccccc2[C@H]1c1ccc(Cl)c(Cl)c1 — 2.9-fold higher, 2830 nM
- CNC[C@@H]1Cc2ccccc2[C@@H](c2ccc(Cl)c(Cl)c2)C1 — 18-fold lower, 54 nM
- N[C@@H]1Cc2ccccc2[C@@H](c2ccc(Cl)c(Cl)c2)C1 — 1.9-fold higher, 1830 nM
- CN(C)[C@@H]1Cc2ccccc2[C@@H](c2ccc(Cl)c(Cl)c2)C1 — 9-fold lower, 108 nM
- CN[C@@H]1CCc2ccccc2[C@H]1c1ccc(Cl)c(Cl)c1 — 2.6-fold higher, 2500 nM
- CN[C@@H]1Cc2ccccc2[C@@H](c2ccc(Cl)c(Cl)c2)C1 — 7.8-fold lower, 125 nM
- CN(C)[C@H]1Cc2ccccc2[C@@H](c2ccc(Cl)c(Cl)c2)C1 — 48-fold lower, 20 nM
- CNC[C@@H]1Cc2ccccc2[C@H](c2ccc(Cl)c(Cl)c2)C1 — 42-fold lower, 23 nM

Target: Sodium-dependent noradrenaline transporter (Homo sapiens, UniProt P23975)
Format: cell-based, MDCK

Point of comparison: CN[C@@H]1Cc2ccccc2[C@@H](c2ccc(Cl)c(Cl)c2)C1, IC50 117 nM. Against it:
- CN[C@@H]1Cc2ccccc2[C@H](c2ccc(Cl)c(Cl)c2)C1 — 2.6-fold lower, 45 nM

Reference: ChEMBL document CHEMBL1641414, “Synthesis and pharmacological evaluation of 4-(3,4-dichlorophenyl)-N-methyl-1,2,3,4-tetrahydronaphthalenyl amines as triple reuptake inhibitors” (Bioorg Med Chem, 2011)
